Reference: article PMC2783949 (Bioorganic & medicinal chemistry, 2009)

Protein sequences, listed by entry. Tags and fused reporters are not part of them. Residues count along the entry.
UniProt P0A786, 2-311: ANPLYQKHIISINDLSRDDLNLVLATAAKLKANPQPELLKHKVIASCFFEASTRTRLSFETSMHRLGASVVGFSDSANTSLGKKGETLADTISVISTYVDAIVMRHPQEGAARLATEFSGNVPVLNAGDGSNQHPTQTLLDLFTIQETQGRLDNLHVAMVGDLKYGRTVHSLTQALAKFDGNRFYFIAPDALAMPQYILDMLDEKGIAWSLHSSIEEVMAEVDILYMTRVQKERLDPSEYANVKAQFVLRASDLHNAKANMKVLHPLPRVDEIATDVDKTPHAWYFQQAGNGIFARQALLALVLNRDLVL

Molecular target: catalytic subunit of E. coli ATCase (Escherichia coli, UniProt P0A786)
Settings: ratio to Ki of PALA

Compound: O=C(O)C[C@H](NC(=O)CP(=O)(O)O)C(=O)O [Compound 1, N-phosphonacetyl-L-aspartate]
- Ki/Ki(PALA): 1
